## scFv variants of Ab-14 (light chain) against a SARS-CoV-2 spike peptide

The target is the same throughout: PDVDLGDISGINAS, from the HR2 region of SARS-CoV-2 spike.

Parent: Ab-14, a human scFv built as VH, a (GGGGS)3 linker, VL. Only the CDRs of the light chain vary.
VH: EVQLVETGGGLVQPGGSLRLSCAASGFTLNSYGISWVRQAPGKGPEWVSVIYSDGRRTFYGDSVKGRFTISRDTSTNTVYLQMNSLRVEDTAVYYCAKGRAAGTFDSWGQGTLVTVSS
VL: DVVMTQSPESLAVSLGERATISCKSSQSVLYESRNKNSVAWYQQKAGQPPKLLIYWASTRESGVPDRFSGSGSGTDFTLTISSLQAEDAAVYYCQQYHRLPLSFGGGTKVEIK

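The parent was found by panning a naive human phage display library on the peptide. Library AAYL50 holds single substitutions and randomly drawn double and triple substitutions in the CDRs. The assay is AlphaSeq: two haploid yeast populations carry antibody and antigen on their surface. The frequency of each diploid, read from paired DNA barcodes, reflects how well the two displayed proteins bind. Scores were corrected for input abundance and mapped to Kd with protein pairs of known affinity run in the same pool. The assay was run in three technical replicates.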

Positions count from residue 1 of the parent VL; S103M puts M in place of S.
Scale: log10 of Kd in nM, estimated from mating counts; low values are strong binders.
"ND" means that the variant was in the library but no mating with the target was seen in that replicate; the authors take this as a sign of poor binding, and no number exists.
Nonspecific signal, from three strains lacking the peptide, appeared in 18% of pairings of library AAYL50, centred on 4.19 (5% of these signals below 2.99); values are not corrected for it. Also given: how often the same scFv was detected with the empty control strains, with their mean in brackets.
In this assay the parent's reference entry averaged 0.65; its copy inside this library read 1.68.

changes,"replicates, log10 nM",signal with controls
S103M,1.17 1.18 1.21,1 of 9 (4.55)
K24W/S28P/N35T,2.39 2.09 2.28,4 of 9 (4.39)
Q96A/H98E/P101K,ND ND 5.52,1 of 9 (3.93)
S33V/S38P/P101K,ND ND 5.94,2 of 9 (4.05)
R34M/S58N/R99G,1.22 1.45 1.57,0 of 9
N35G/S38A/R60K,2.04 1.76 ND,0 of 9
K24I/E32I,ND ND ND,0 of 9
K36C/A57P/S62A,5.73 4.78 3.86,4 of 9 (4.22)
R34M/T59C/Q96H,2.16 2.71 2.80,0 of 9
Q27V/H98D,1.07 1.05 1.17,1 of 9 (4.40)
E32S/S38Y/V39F,ND ND ND,1 of 9 (4.60)
Q27R/L30K/S103Q,1.63 1.84 1.92,5 of 9 (3.90)
K24P/S25F/V39I,1.47 1.87 1.88,3 of 9 (4.46)
R34S/R60L,2.26 2.15 2.47,2 of 9 (5.20)
E61L/L100Q/L102M,1.05 1.15 1.14,1 of 9 (4.26)
K24I/Q27C/S62I,2.21 2.08 2.57,2 of 9 (5.04)
S26F/N35H/T59F,5.31 3.48 3.09,2 of 9 (4.18)
S25W/Y97W/L102K,ND ND ND,0 of 9
T59G/S62P/Q96E,ND 4.66 4.00,1 of 9 (4.11)
S28T/S62A/S103Q,2.10 2.39 2.80,1 of 9 (3.76)
S33P/N35W/Q96E,4.65 2.69 ND,1 of 9 (4.99)
S58R/Q95Y/L102D,ND ND ND,1 of 9 (4.99)
S33A/W56A/H98N,ND ND ND,0 of 9
R34Y/N35D/S38G,1.31 1.27 1.06,2 of 9 (4.31)
V39H/R60F/L102F,ND ND ND,0 of 9
S26P/Y97A/L102V,5.33 ND ND,3 of 9 (4.23)
L30I/S33T/K36H,3.03 3.29 2.85,0 of 9
R34E/A40M/A57R,ND ND ND,0 of 9
V29D/V39A/L100W,ND 3.35 4.47,2 of 9 (4.24)
Q27F/N35P/R99D,1.32 1.52 1.96,0 of 9
S25N/N35V/V39I,2.13 2.66 2.11,0 of 9
S38D/Y97K,ND ND ND,1 of 9 (3.49)
S38A/W56Q/L100D,ND ND 4.13,0 of 9
K24V/K36S/S58K,1.59 1.76 1.76,3 of 9 (4.94)
K36I/A57P/R99F,ND ND ND,0 of 9
N37R/W56K,1.44 1.53 1.59,3 of 9 (3.90)
K24S/S25A/H98E,ND ND ND,1 of 9 (4.52)
N37S/S38D/Y97Q,ND ND ND,1 of 9 (4.33)
K24Q/S28Q,1.45 1.11 1.11,0 of 9
V29W/E32T,1.60 1.64 2.05,4 of 9 (4.54)
Q95R/Y97I/L100C,3.33 3.33 4.12,3 of 9 (3.99)
S25H/V29S,0.57 0.75 0.82,1 of 9 (4.98)
N35W/E61V/L102M,2.29 2.19 2.37,4 of 9 (4.48)
W56L/Q96V/L100E,ND ND 4.16,1 of 9 (3.38)
K24H/Q27D,0.81 0.95 0.86,3 of 9 (4.54)
N35E/N37G/L100Y,ND ND 5.67,3 of 9 (3.48)

The closing 6 entries, repeated:

{"changes": "Q95R/Y97I/L100C", "replicates, log10 nM": "3.33 3.33 4.12", "signal with controls": "3 of 9 (3.99)"}
{"changes": "S25H/V29S", "replicates, log10 nM": "0.57 0.75 0.82", "signal with controls": "1 of 9 (4.98)"}
{"changes": "N35W/E61V/L102M", "replicates, log10 nM": "2.29 2.19 2.37", "signal with controls": "4 of 9 (4.48)"}
{"changes": "W56L/Q96V/L100E", "replicates, log10 nM": "ND ND 4.16", "signal with controls": "1 of 9 (3.38)"}
{"changes": "K24H/Q27D", "replicates, log10 nM": "0.81 0.95 0.86", "signal with controls": "3 of 9 (4.54)"}
{"changes": "N35E/N37G/L100Y", "replicates, log10 nM": "ND ND 5.67", "signal with controls": "3 of 9 (3.48)"}

Data: MIT Lincoln Laboratory AlphaSeq set, Engelhart et al. 2022, doi:10.1038/s41597-022-01779-4, as distributed in FLAb.